In patent US20210403485A1, “PYRAZOLOPYRIMIDINE DERIVATIVE AS SELECTIVE TRK INHIBITOR” (SHANDONG LUYE PHARMACEUTICAL CO., LTD., priority 2018, published 2021) one finds IC50 and GI50 data, which are given here for three molecules.

Chains of the proteins cited; added tags and fusions are not shown. Residues count along the entry.
UniProt P08922, 28-2347: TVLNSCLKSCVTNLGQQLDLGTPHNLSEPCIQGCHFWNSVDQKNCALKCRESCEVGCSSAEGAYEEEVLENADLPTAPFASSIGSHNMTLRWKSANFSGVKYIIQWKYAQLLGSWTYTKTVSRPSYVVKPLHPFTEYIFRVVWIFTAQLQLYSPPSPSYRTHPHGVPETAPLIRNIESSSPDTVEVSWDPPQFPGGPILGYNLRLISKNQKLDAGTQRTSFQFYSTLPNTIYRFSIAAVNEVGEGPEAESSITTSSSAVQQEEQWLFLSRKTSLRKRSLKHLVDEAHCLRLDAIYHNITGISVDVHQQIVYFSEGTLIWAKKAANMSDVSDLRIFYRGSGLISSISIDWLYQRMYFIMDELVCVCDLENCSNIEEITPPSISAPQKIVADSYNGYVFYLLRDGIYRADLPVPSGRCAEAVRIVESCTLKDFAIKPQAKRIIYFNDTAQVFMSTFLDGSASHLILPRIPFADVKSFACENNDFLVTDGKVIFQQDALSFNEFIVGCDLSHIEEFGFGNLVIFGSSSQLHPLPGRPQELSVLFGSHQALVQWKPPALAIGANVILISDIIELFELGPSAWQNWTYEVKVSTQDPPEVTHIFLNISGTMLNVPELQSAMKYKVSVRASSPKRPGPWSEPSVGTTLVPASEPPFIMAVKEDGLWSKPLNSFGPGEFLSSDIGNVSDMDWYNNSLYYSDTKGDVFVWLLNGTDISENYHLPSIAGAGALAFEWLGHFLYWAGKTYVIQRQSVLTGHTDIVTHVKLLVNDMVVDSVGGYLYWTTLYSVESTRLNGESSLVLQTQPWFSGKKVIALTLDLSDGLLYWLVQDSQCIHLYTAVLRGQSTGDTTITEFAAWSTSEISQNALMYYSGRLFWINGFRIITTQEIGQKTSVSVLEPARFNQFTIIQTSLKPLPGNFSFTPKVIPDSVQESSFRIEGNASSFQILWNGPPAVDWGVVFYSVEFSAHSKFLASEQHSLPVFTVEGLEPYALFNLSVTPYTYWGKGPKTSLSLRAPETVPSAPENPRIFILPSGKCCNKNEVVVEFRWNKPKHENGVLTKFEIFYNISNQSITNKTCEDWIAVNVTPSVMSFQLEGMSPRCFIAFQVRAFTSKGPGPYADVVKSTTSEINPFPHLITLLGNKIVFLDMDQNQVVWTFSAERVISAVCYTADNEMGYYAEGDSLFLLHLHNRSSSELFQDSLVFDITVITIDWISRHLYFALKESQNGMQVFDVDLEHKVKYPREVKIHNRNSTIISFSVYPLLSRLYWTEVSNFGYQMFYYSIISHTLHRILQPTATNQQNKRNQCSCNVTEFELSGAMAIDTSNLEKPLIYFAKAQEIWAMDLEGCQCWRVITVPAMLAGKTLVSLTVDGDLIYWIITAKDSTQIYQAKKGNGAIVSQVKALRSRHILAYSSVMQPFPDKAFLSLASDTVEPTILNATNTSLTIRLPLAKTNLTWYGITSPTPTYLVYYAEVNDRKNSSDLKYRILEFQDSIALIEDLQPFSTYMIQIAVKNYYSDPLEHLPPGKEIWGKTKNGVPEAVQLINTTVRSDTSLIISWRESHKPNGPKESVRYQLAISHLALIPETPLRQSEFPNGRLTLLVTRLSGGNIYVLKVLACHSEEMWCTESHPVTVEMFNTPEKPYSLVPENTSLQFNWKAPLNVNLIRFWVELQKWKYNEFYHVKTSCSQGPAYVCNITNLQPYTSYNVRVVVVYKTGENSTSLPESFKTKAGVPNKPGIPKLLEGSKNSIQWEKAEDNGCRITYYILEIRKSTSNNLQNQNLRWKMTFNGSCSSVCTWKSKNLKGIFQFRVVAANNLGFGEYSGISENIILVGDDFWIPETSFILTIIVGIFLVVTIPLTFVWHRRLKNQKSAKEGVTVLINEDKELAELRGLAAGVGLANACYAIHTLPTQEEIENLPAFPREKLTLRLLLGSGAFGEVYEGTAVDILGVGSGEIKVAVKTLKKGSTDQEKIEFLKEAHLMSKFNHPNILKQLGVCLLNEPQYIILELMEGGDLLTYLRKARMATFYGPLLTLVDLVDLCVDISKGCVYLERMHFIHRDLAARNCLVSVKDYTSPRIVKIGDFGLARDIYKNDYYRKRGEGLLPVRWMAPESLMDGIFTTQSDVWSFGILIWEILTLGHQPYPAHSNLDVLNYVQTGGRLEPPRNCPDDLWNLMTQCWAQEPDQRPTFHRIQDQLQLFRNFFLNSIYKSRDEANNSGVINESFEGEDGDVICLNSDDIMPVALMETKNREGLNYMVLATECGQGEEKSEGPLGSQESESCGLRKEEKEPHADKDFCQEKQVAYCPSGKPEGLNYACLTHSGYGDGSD
UniProt P04629, 33-796: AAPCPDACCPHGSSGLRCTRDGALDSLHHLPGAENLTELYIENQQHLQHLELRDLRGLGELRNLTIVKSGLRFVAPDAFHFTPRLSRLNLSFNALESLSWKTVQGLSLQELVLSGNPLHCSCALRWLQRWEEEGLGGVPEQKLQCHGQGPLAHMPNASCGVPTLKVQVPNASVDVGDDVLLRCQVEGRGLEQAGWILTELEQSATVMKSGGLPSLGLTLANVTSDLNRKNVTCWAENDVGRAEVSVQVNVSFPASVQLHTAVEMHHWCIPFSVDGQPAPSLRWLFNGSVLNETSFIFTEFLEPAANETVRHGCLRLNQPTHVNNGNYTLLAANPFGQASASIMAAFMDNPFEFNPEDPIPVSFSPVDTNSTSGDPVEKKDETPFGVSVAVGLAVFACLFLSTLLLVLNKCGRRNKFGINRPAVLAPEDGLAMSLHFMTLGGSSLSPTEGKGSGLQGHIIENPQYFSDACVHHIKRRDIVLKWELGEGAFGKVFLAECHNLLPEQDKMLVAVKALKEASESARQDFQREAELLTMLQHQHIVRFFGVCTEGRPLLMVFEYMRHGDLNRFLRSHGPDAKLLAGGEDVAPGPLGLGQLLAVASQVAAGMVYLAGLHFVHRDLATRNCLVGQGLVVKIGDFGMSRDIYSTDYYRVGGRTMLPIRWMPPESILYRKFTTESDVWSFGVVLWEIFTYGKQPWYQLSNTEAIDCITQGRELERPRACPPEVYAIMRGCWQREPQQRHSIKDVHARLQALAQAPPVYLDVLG
UniProt P04629, 33-796 G667C: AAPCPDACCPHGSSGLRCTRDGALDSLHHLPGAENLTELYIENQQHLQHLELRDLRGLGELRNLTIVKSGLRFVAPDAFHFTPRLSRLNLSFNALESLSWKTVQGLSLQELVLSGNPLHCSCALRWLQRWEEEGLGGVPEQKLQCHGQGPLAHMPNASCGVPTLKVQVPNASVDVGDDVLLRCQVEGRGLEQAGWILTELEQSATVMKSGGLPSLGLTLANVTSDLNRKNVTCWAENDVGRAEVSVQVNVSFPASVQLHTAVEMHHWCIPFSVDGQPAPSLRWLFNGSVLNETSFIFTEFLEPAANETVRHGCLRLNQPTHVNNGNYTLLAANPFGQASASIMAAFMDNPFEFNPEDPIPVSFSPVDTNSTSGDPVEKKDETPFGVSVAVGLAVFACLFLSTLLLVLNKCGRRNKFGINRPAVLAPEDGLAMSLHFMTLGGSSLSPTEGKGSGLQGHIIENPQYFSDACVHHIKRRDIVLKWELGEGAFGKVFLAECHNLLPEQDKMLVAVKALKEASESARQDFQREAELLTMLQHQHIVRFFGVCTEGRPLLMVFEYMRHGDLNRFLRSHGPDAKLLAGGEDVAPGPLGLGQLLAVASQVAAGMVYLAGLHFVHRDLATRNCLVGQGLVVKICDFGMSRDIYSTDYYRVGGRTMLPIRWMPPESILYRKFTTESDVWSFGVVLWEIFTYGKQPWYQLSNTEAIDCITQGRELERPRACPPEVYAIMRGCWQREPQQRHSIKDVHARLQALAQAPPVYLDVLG
UniProt P04629, whole entry G667A: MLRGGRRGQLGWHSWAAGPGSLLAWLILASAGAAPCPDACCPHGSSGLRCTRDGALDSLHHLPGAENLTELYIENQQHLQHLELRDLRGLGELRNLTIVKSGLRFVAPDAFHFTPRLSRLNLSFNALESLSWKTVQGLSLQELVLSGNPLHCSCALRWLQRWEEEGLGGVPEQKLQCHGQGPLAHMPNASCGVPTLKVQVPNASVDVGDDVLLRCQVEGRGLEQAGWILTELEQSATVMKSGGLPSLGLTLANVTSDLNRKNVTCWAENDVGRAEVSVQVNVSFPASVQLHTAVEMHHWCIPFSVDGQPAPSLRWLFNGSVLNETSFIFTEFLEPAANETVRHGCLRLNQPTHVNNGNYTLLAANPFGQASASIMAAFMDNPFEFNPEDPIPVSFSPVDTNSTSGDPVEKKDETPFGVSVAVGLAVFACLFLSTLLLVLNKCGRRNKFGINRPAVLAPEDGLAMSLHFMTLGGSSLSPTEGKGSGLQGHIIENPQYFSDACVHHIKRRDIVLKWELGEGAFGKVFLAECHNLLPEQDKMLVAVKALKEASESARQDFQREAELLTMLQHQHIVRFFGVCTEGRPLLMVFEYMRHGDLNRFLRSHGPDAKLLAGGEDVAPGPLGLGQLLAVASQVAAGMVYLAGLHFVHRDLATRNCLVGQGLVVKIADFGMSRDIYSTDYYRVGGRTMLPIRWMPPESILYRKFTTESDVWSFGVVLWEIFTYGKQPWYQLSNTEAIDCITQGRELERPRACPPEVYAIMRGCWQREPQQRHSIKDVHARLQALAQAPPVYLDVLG
UniProt P04629, 33-796 G595R: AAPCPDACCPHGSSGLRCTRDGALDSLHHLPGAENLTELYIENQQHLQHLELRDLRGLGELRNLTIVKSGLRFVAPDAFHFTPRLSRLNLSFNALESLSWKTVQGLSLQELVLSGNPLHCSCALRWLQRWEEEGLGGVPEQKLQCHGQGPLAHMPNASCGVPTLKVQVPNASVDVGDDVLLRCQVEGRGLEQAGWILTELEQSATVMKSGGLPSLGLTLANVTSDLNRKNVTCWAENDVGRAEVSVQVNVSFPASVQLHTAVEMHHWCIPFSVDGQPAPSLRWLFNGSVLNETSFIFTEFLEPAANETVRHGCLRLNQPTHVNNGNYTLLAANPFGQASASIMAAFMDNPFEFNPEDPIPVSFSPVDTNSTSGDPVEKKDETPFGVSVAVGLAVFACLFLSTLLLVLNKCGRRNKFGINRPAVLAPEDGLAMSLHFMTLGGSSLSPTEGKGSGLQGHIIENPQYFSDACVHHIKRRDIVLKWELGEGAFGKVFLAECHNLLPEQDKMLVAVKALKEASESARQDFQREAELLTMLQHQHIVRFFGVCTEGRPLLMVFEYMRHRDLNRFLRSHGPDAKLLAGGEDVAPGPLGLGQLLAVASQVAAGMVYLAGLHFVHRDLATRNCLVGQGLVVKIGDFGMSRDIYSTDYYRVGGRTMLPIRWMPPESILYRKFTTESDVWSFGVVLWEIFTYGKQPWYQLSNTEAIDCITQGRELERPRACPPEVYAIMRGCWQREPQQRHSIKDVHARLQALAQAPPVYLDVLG

One test addresses T1, Ros1 (Homo sapiens, UniProt P08922).
T1 construct: purchased Reaction Biology Corp
Put plainly: Kinase inhibitory activity (33P-ATP, filtration-binding method, Reaction Biology Corp.). Type of test: biochemical. The following applies: read-out: Half maximal inhibitory concentration IC50 for kinases, Ros1.

The target in the next test is T2, TrkA (Homo sapiens, UniProt P04629).
T2 construct: purchased Reaction Biology Corp
Described as above. In kind it is biochemical. The following applies: read-out: Half maximal inhibitory concentration IC50 for kinases, TrkA.

In another test the target is T3, TrkA-G667C (Homo sapiens, UniProt P04629, G667C).
T3 construct: purchased Reaction Biology Corp
The test is described as above. Type of test: biochemical. The following applies: read-out: Half maximal inhibitory concentration IC50 for kinases, TrkA-G667C.

The target of the next test is T4, BaF3 LMNA-NTRK1-G667A (Homo sapiens, UniProt P04629, G667A, cells depend on it).
T4 construct: fused on or other part: N-terminal part of LMNA as fusion partner (part of the key); P02545 (Prelamin-A/C)
Nature of the test: Inhibitory activity against cell proliferation (CellTiter-Glo, 72 hours). Type of test: cell-based. The following applies: read-out: Half maximal inhibitory concentration IC50 of cells, BaF3 LMNA-NTRK1-G667A. How it is done:
(§1) Adenosine Triphosphate (ATP) is an energy carrier commonly used in various life activities in nature, and is the minimum unit for energy storage and transfer. The CellTiter-Glo™ cell viability assay kit uses luciferase as an assay agent, which requires the involvement of ATP in luminescence. The CellTiter-Glo™ reagent is added into cell culture medium to measure the luminescence value. The luminescence signal is directly proportional to the amount of ATP in the system, and the ATP is positively correlated with the number of viable cells. Therefore, the proliferation of cells can be detected by detecting the ATP content using the CellTiter-Glo kit. In this test, the cell lines used are Ba/F3 LMNA-NTRK1-WT, Ba/F3 LMNA-NTRK1-F589L, BaF3 LMNA-NTRK1-G595R, BaF3 LMNA-NTRK1-G667A, BaF3 ETV6-NTRK3-WT, BaF3 ETV6-NTRK3-G623R, and Ba/F3 SLC34A2-ROS1-WT stable cell strains, 5000 cells/well.
(§2) a) Cells in the logarithmic growth phase were collected and counted using a […]. The cell viability was detected by the trypan blue exclusion method, and the cell viability was kept over 90%. […]
(§3) d) The cell plate was placed at room temperature for 20 minutes to stabilize the luminescence signal.
(§4) e) The luminescence value was read.
(§5) The data were analyzed using GraphPad Prism 5.0 software, fitted with nonlinear S-curve regression to give dose-response curves, and IC50 values were calculated therefrom.
(In general: In ATP-based viability assays light output follows the ATP content of the culture.)

In another test the target is T5, Ba/F3 SLC34A2-ROS1-WT (Homo sapiens, UniProt P08922).
T5 construct: fused on or other part: N-terminal part of SLC34A2 as fusion partner (part of the key); O95436 (Sodium-dependent phosphate transport protein 2B)
Described as above. The settings on record: read-out: Half maximal inhibitory concentration IC50 of cells, Ba/F3 SLC34A2-ROS1-WT. In kind it is cell-based. How it is done: as §1, §2, §3, §4, §5

The next test has as its target T6, ALK (Homo sapiens, UniProt Q9UM73).
T6 construct: purchased Reaction Biology Corp
Put plainly: Kinase inhibitory activity (33P-ATP, filtration-binding method, Reaction Biology Corp.). In kind it is biochemical. The following applies: read-out: Half maximal inhibitory concentration IC50 for kinases, ALK.

Another test has as its target T7, TrkA-G595R (Homo sapiens, UniProt P04629, G595R).
T7 construct: purchased Reaction Biology Corp
The test is described as above. The settings on record: read-out: Half maximal inhibitory concentration IC50 for kinases, TrkA-G595R. In kind it is biochemical.

Structures are written as SMILES.

Regarding `C[C@@H]1CCc2ncc(F)cc2[C@H]2CCCN2c2ccn3ncc(c3n2)C(=O)N1` [LOXO-195, reference compound], the IC50 at Ros1 came out at 1.15 nM.

Consider `O=C1NC2(CC2)COc2ncc(F)cc2C2CNCCN2c2ccn3ncc1c3n2` (stereo not drawn) [WX003A], for which, at TrkA, the IC50 is 656 nM.

For the molecule `O=C1NC2(CC2)COc2ncc(F)cc2[C@H]2CNCCN2c2ccn3ncc1c3n2` [WX003B], the IC50 on TrkA turned out to be 4.9 nM; on TrkA-G667C, 1.7 nM; at Ros1, 1.2 nM; on ALK, 88.9 nM; at TrkA-G595R, 9.4 nM. The GI50 is 1.2 nM at BaF3 LMNA-NTRK1-G667A and 51.4 nM at Ba/F3 SLC34A2-ROS1-WT.
